The EC50 is the concentration at which the effect is half-maximal.

Amino acid sequences for entries named in this document (tags omitted). A change or cut given only in a name is not applied to a line headed by its entry. Residues count along the entry.
UniProt P35396, 210-438 limits assumed: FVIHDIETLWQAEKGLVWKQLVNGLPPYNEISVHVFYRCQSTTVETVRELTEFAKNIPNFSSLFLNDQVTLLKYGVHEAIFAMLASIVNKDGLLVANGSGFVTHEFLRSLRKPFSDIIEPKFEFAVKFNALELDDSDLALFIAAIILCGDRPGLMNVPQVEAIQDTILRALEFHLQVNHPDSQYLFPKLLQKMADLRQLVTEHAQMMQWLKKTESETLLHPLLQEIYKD

Results on one molecule are retold here after paper PMC1940322, “The Effect of PPARα, PPARδ, PPARγ, and PPARpan Agonists on Body Weight, Body Mass, and Serum Lipid Profiles in Diet-Induced Obese AKR/J Mice” (PPAR Research, 2007).

For this assay, the target named is murine PPARδ (Mus musculus, UniProt P35396). In words: PPAR-GAL4 transient transfection transactivation assay (SPAP reporter) in CV-1 cells, PPARδ. Format: cell-based.

Regarding `CCCCCCCN(CCc1ccc(SC(C)(C)C(=O)O)cc1)C(=O)Nc1ccc(F)cc1F` [GW9578], the “mPPARδ %Max” value (maximal activation vs reference comparator) was found to be 76%. Further, where the note is “read-out: mPPARδ, murine receptor activation EC50, CV-1 cells, GAL4 chimera”, the half-maximal effective concentration (EC50) is 2.34 µM.
